Measurements taken from patent USRE42013E1.

Sequences of proteins named here, by UniProt entry; tags and fusion partners are left off.
UniProt Q92847, whole entry: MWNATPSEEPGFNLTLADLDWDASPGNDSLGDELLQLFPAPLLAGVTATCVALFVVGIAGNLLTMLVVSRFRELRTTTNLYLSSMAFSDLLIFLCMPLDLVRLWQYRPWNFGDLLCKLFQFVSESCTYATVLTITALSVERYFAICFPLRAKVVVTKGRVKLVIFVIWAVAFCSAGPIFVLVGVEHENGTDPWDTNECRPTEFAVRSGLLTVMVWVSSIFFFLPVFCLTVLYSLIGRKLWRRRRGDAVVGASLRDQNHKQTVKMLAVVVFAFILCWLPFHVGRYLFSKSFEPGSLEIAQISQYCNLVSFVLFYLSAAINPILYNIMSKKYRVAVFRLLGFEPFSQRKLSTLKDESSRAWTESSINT
UniProt O43193, whole entry: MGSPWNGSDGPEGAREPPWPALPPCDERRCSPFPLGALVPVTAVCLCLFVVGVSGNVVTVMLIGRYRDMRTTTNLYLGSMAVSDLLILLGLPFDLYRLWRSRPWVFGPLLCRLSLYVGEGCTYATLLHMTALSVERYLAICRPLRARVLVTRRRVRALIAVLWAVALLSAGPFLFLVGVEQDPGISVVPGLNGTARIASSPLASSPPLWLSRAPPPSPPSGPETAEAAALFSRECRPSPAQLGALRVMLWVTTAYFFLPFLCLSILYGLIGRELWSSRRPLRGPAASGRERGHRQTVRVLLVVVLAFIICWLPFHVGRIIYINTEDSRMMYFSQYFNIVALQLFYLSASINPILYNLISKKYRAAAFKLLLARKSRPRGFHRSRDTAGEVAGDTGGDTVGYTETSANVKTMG

Experiments:
[1] = molecular target: human ghrelin receptor (hGHS-R1a) (Homo sapiens, UniProt Q92847)
motilin receptor = motilin receptor (Homo sapiens, UniProt O43193); test: Selectivity versus the motilin receptor

pEC50 [1]	Selectivity (motilin receptor)	SMILES
7.00 to 9.00		CC[C@H](C)[C@@H]1NCCCc2ccccc2C=CCNC(=O)[C@@H](Cc2ccccc2)NC(=O)[C@@H](C)N(C)C1=O
	2500/1	C[C@@H]1C(=O)N[C@H](Cc2ccc(F)cc2)C(=O)NCCCc2ccc(F)cc2OCCN[C@@H](C2CC2)C(=O)N1C
6.00 to 7.00		CCC(C)[C@@H]1NC[C@@H](C)Oc2ccccc2CCCNC(=O)[C@@H](Cc2ccccc2)NC(=O)[C@@H](C)N(C)C1=O (single isomer, unassigned) [36]

pEC50: −log10 of the molar value.
